Assay results as given in article PMC10954796 (2024).

Experiments:
Test in all cases: microscale thermophoresis
pS8-Aβ42 = pS8-Aβ42 (Homo sapiens, phosphoSer8)
Aβ42 = Aβ42 (Homo sapiens)
Aβ17-42 = biological target: T1, Aβ17-42 (Homo sapiens)
T1 chain: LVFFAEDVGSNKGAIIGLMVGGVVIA

- Kd (pS8-Aβ42): 7 µM
- Kd (Aβ42): 1 µM
- Kd (Aβ17-42): 10 µM
B1: sRAGE ECD (protein)
chain: AQNITARIGEPLVLKCKGAPKKPPQRLEWKLNTGRTEAWKVLSPQGGGPWDSVARVLPNGSLFLPAVGIQDEGIFRCQAMNRNGKETKSNYRVRVYQIPGKPEIVDSASELTAGVPNKVGTCVSEGSYPAGTLSWHLDGKPLVPNEKGVSVKEQTRRHPETGLFTLQSELMVTPARGGDPRPTFSCSFSPGLPRHRALRTAPIQPRVWEPVPLEEVQLVVEPEGGAVAPGGTVTLTCEVPAQPSPQIHWMKDGVPLPLPPSPVLILPEIGPQDQGTYSCVATHSSHGPQESRAVSISIIEPGEEGPTAGSVGGSGLGTLA
